This is an account of results in paper PMC5995905, “Confirmation of high-throughput screening data and novel mechanistic insights into VDR-xenobiotic interactions by orthogonal assays” (Scientific Reports, 2018).

This series concerns the target T1, human VDR (Homo sapiens, UniProt P11473).
T1 sequence (P11473 1-427): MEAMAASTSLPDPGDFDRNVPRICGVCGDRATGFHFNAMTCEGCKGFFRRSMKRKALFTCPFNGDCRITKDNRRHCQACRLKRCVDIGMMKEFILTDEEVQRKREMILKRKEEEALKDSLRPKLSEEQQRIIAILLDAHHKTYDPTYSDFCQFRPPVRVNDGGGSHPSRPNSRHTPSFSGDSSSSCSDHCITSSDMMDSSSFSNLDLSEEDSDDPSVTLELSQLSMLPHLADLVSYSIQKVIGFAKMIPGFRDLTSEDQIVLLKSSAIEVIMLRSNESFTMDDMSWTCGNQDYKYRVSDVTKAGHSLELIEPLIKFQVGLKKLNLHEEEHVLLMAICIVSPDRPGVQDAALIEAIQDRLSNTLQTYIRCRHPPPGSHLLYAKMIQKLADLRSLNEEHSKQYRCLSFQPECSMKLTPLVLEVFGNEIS
In words: Transient transactivation assay (CYP24-Luc), agonist mode, HEK293T cells. The following applies: top asymptote of Hill or Gain-Loss model, maximum response.

For `C=C1CC[C@H](O)C/C1=C/C=C1\CCC[C@]2(C)[C@@H]([C@H](C)/C=C/[C@H](C)C(C)C)CC[C@@H]12` [Ergocalciferol, reference compound], the “Derived Efficacy (fold induction)” value is 82.6111 fold induction.
